Read-outs that look alike come from different tables or passages of the source.
Target: T1, human mGlu2 receptor (Homo sapiens, UniProt Q14416)
T1 construct: expressed in transfected cells; host or cells: CHO cells
Experiment: [35S]GTPγS binding assay, mGluR2 PAM
Assay type: biochemical
Settings: for EC50: EC50 expressed in M; for Emax: read-out: GTPγS - hmGluR2 PAM Emax, maximal % effect relative to the control glutamate response
Protocol: [^35S]GTPγS Binding Assay
The [^35S]GTPγS binding assay is a functional membrane-based assay used to study G-protein coupled receptor (GPCR) function whereby incorporation of a non-hydrolysable form of GTP, [^35S]GTPγS (guanosine 5′-triphosphate, labelled with […] ^35S), is measured.
Cells were then collected by scraping in PBS and cell suspension was centrifuged (10 min at 4000 RPM in benchtop centrifuge). Supernatant was discarded and pellet gently resuspended in 50 mM Tris-HCl, pH 7.4 by mixing with a vortex and pipetting up and down. The suspension was centrifuged at 16,000 RPM (Sorvall RC-5C plus rotor SS-34) for 10 minutes and the supernatant discarded. The pellet was homogenized in 5 mM Tris-HCl, pH 7.4 using an ultra-turrax homogenizer and centrifuged again (18,000 RPM, 20 min, 4° C.). The final pellet was resuspended in 50 mM Tris-HCl, pH 7.4 and stored at −80° C. in appropriate aliquots before use. Protein concentration was determined by the Bradford method (Bio-Rad, USA) with bovine serum albumin as standard.
Measurement of mGluR2 positive allosteric modulatory activity of test compounds was performed as follows. Test compounds and glutamate were diluted in assay buffer containing 10 mM HEPES acid, 10 mM HEPES salt, pH 7.4, 100 mM NaCl, 3 mM MgCl2 and 10 μM GDP. Human mGlu2 receptor-containing membranes were thawed on ice and diluted in assay buffer supplemented with 14 μg/ml saponin. Membranes were pre-incubated with compound alone or together with a predefined (˜EC20) concentration of glutamate (PAM assay) for 30 min at 30° C. After addition of [^35S]GTPγS (f c. 0.1 nM), assay mixtures were shaken briefly and further incubated to allow [^35S]GTPγS incorporation on activation (30 minutes, 30° C.). Final assay mixtures contained 7 μg of membrane protein in 10 mM HEPES acid, 10 mM HEPES salt, pH 7.4, 100 mM NaCl, 3 mM MgCl2, 10 μM GDP and 2 μg/ml saponin. […] Filters were washed 6 times with ice-cold 10 mM NaH2PO4/10 mM Na2HPO4, pH 7.4. Filters were then air-dried, and 40 μl of liquid scintillation cocktail (Microscint-O) was added to each well. Membrane-bound radioactivity was counted in a Microplate Scintillation and Luminescence Counter from Perkin Elmer.
The concentration-response curves of representative compounds of the present invention—obtained in the presence of EC20 of mGluR2 agonist glutamate to determine positive allosteric modulation (PAM)—were generated using the Lexis software interface (developed at J&J). Data were calculated as % of the control glutamate response, defined as the maximal response that is generated upon addition of glutamate alone. Sigmoid concentration-response curves plotting these percentages versus the log concentration of the test compound were analyzed using non-linear regression analysis. The concentration producing half-maximal effect is then calculated as EC50.
The pEC50 values below were calculated as the −log EC50, when the EC50 is expressed in M. Emax is defined as relative maximal effect (i.e. maximal % effect relative to the control glutamate response).
All compounds were tested in presence of mGluR2 agonist glutamate at a predetermined EC20 concentration, to determine positive allosteric modulation. pEC50 values were calculated from a concentration-response experiment of at least 8 concentrations.

Chains of the proteins cited; added tags and fusions are not shown. Residues count along the entry.
UniProt Q14416, 19-872: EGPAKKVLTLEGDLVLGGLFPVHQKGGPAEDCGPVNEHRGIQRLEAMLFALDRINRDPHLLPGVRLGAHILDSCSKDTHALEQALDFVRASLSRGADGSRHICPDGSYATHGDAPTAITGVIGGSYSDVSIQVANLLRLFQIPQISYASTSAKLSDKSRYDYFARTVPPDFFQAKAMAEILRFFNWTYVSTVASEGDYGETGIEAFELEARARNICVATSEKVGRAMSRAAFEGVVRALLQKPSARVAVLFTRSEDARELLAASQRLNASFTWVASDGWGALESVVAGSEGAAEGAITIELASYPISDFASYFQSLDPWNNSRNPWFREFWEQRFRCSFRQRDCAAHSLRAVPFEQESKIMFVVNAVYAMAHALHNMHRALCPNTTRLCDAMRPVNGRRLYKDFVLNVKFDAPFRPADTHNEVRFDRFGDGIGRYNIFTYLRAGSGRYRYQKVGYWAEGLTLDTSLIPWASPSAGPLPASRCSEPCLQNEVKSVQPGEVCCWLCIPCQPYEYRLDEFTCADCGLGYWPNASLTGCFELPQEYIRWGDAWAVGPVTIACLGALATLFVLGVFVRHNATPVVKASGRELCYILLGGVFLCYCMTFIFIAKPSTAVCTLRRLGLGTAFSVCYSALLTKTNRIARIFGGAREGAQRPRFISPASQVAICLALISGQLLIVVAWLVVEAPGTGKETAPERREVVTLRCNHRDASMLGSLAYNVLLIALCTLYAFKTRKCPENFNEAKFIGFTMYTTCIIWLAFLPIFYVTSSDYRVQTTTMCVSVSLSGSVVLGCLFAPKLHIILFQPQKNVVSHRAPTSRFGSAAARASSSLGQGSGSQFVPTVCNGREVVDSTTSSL

[1] = in presence of glutamate at EC20, read-out: GTPγS - hmGluR2 PAM pEC50 (converted)
[2] = GTPγS - hmGluR2 PAM pEC50, in presence of glutamate at EC20

| EC50 [1] | EC50 [2] | Emax (glutamate at EC20) | other results | Structure (SMILES) |
| --- | --- | --- | --- | --- |
| 380 nM |  |  |  | CCc1nnc2c(C(F)(F)F)c(C(C)Oc3ccc(F)cc3F)ccn12 (centres unmarked) [Compound 24, 7-[1-(2,4-Difluorophenoxy)ethyl]-3-ethyl-8-(trifluoromethyl)[1,2,4]triazolo[4,3-a]pyridine] |
|  |  |  | GTPγS - hmGluR2 PAM Emax (maximal % effect relative to the control glutamate response, glutamate at EC20): 51% | CCc1nnc2c(C(F)(F)F)c(C(C)Oc3ccc(F)cc3F)ccn12 (single isomer, unassigned) [Compound 27, 7-[(1*S)-1-(2,4-Difluorophenoxy)ethyl]-3-ethyl-8-(trifluoromethyl)[1,2,4]triazolo[4,3-a]pyridine] |
|  | 64.6 nM |  |  | CCc1nnc2c(C(F)(F)F)c(C(C)Oc3c(F)cc(F)cc3F)ccn12 (single isomer, unassigned) [Compound 28, 3-Ethyl-8-(trifluoromethyl)-7-[(1*R)-1-(2,4,6-trifluorophenoxy)ethyl]-[1,2,4]triazolo[4,3-a]pyridine] |
| 166 nM |  | 214% |  | CCc1nnc2c(C(F)(F)F)c(C(C)Oc3ccc(F)cc3F)ccn12 (single isomer, unassigned) [Compound 26, 7-[(1*R)-1-(2,4-Difluorophenoxy)ethyl]-3-ethyl-8-(trifluoromethyl)[1,2,4]triazolo[4,3-a]pyridine] |
|  | 1410 nM |  |  | CCc1nnc2c(C(F)(F)F)c(C(C)Oc3c(F)cc(F)cc3F)ccn12 (single isomer, unassigned) [Compound 29, 3-Ethyl-8-(trifluoromethyl)-7-[(1*S)-1-(2,4,6-trifluorophenoxy)ethyl]-[1,2,4]triazolo[4,3-a]pyridine] |
|  | 126 nM | 233% |  | CCc1nnc2c(C(F)(F)F)c(C(C)Oc3c(F)cc(F)cc3F)ccn12 (centres unmarked) [Compound 25, 3-Ethyl-8-(trifluoromethyl)-7-[1-(2,4,6-trifluorophenoxy)ethyl][1,2,4]triazolo[4,3-a]pyridine] |

Source: patent publication US9708315B2, “1,2,4-triazolo[4,3-a]pyridine compounds and their use as positive allosteric modulators of MGLUR2 receptors” (Janssen Pharmaceutica NV, priority 2013, dated 2017)
